Laboratory results published in EP1790337A2, “Methods and compounds for treating depression and other disorders” (priority 1998, dated 2000).

Tested on: NMDA receptor
Assay: NMDA assay: fura-2 measurement of cytosolic calcium in cultured rat cerebellar granule cells
Type: cell-based
Details: read-out: fura2 data IC50, fura-2 [Ca2+]i

`CNCCC(Oc1ccccc1OC)c1ccccc1` (stereo not shown) [Nisoxetine] was tested, and the IC50 was 1230 nM.
